Experimental data: ChEMBL document CHEMBL1240533, “Selectivity and potency of cyclin-dependent kinase inhibitors” (AAPS J, 2006)

The chains behind the UniProt entries cited, without tags or fusion partners.
UniProt P20248, whole entry: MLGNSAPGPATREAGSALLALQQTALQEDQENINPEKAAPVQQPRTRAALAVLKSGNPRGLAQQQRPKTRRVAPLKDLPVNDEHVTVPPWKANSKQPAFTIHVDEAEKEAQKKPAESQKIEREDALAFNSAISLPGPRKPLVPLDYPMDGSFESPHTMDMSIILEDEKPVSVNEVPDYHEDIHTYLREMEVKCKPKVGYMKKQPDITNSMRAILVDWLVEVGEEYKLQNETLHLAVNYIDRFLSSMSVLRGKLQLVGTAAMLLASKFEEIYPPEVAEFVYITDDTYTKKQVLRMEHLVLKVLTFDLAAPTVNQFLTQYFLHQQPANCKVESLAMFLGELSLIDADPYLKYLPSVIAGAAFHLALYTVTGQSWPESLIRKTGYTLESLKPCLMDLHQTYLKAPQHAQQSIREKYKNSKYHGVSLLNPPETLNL

Experiments:
[1] = biological target: Cyclin-dependent kinase 2/cyclin A (Homo sapiens, UniProt P24941); format: protein-complex assay
Cyclin-A2 = Cyclin-A2 (Homo sapiens, UniProt P20248)

With `CC(C)C[C@H](NC(=O)[C@H](CCCNC(N)=O)NC(=O)[C@@H](N)CCCNC(N)=O)C(=O)N[C@@H](C)C(=O)N[C@@H](Cc1ccc(F)cc1)C(N)=O` the IC50 [1] was 12 µM and the IC50 (Cyclin-A2) was 21 µM.
